We go through eight molecules from US7618945B2, “Heteroaryl peptidomimetics as thrombin receptor antagonists” (Janssen Pharmaceutica, N.V., priority 2002, dated 2009).

The chains behind the UniProt entries cited, without tags or fusion partners. Residues count along the entry.
UniProt P25116, 22-425 limits assumed: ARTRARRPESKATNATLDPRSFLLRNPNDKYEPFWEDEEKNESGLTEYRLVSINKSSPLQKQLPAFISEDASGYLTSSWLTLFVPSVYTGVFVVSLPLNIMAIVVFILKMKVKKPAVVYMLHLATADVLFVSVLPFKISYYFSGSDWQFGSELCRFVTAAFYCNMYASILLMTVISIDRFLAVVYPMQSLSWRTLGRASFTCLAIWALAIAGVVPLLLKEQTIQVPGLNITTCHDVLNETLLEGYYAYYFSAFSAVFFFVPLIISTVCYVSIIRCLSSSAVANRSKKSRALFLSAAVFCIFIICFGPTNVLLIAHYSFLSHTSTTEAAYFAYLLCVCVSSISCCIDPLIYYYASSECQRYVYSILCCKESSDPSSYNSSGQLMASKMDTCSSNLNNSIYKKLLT

Test [1] deals with thrombin receptor (PAR-1) (Homo sapiens, UniProt P25116). Briefly: In vitro thrombin receptor binding assay (CHRF membranes). The note with it: read-out: Thrombin Receptor Binding IC50, tritiated 721-40 (Ser-pFPhe-Har-Leu-Har-Lys-Tyr-NH2), 30 min incubation. As for the experimental part:
In Vitro Thrombin Receptor Binding Assay
CHRF membranes (Jones, Biochim. Biophys. Acta 1992, 1136, 272) are thawed from −70° C., centrifuged at maximum speed for 5 min, washed twice with binding buffer (50 mM HEPES containing 5 mM MgCl2 and 0.1% BSA), and re-suspended in binding buffer ([…]). 100 μL of membranes are added to the 24-Wallac plates and delivered to the Tomtech apparatus. In a typical experiment, 6 μL of samples (from a 125 μg/mL intermediary plate, 20% DMSO) and 44 μL buffer are delivered to the plates (final conc. of compounds is 3.7 μg/mL, 0.6% DMSO). Similarly, 6 μL 20% DMSO and 44 μL buffer are delivered to both column 1 (NSB) and column 12 (TB). 10 μL Ser-pFPhe-Har-Leu-Har-Lys-Tyr-NH2 (721-40; 500 μM in deionized water) is added to column 1. 50 μL tritiated 721-40 (specific activity 46 Ci/mmol) is added to all the wells. The plates are mixed well for 20 seconds, incubated for 30 min, and then harvested with 10 mM HEPES/138 mM NaCl using the Skatron harvester. The filters (GF/C Brandel FPXLR 296) are presoaked 3 h in 0.5% polyethylenimine in HEPES/0.1M N-acetylglucosamine) are set in saran wrap and dried for 3 min in the microwave, and placed in sample bags (Wallac 1450-432). 4.5 mL scintillation fluid (Wallac, Betaplate Scint 1205-440) is added. The bags are sealed, placed in filter cassettes (Wallac 1450-104), and analyzed on the microbeta counter.
(§1) Table 3 contains IC50 values (μM) of the compounds against platelet aggregation stimulated by thrombin and IC50 values (μM) in a thrombin receptor (PAR-1) binding assay.

For test [2], the system named is gel-filtered platelets. Briefly: Inhibition of thrombin-induced gel-filtered platelet aggregation. The note with it: read-out: Platelet Aggregation Thrombin IC50, aggregation initiated by human α-thrombin 0.113 nM-0.187 nM, OD 650 at 0 and 5 min. The method, then:
(§2) In Vitro Inhibition Of Thrombin- and SFLLRN-NH2-Induced Gel-Filtered Platelet Aggregation Assay
(§3) Platelet Rich Plasma concentrate (Biological Specialties, Inc) is gel filtered (Sepharose 2B, Pharmacia) in Tyrode's buffer (140 mM NaCl, 2.7 mM KCl, 12 mM NaHCO3, 0.76 mM Na2HPO4, 5.5 mM dextrose, 5.0 mM Hepes, and 2 mg/ml BSA @ pH 7.4). The gel-filtered platelets are diluted with Tyrode's buffer (143,000 platelets/μl, final platelet count per well), compound solution in buffer, and 2 mM CaCl2 in a 96 well plate. Platelet aggregation is initiated by the addition of human α-thrombin (American Diagnostica, 0.113 nM-0.187 nM) or SFLLRN-NH2 (2 μM) shown to achieve 80% aggregation (0.015-0.025 NIH U/ml, 0.113 nM-0.187 nM). The assay plate is stirred constantly. Platelet aggregation is monitored by intermittently placing the plate in a microplate reader (Molecular Devices) to read optical density ([…], ΔSOFT) at 0 and 5 minutes after the thrombin addition. Aggregation was calculated to be the decrease in optical density between the time 0 and 5 minute measurements. All samples were tested in duplicate wells on the same plate.
as §1

Test [3] relates to gel-filtered platelets. Kind of test: Inhibition of SFLLRN-NH2-induced gel-filtered platelet aggregation. The following applies: read-out: Platelet Aggregation SFLLRN-NH2 IC50, aggregation initiated by SFLLRN-NH2 (2 μM), OD 650 at 0 and 5 min. As for the experimental part:
as §2, §3

For the molecule `CCCNCc1cn(Cc2ccc(F)cc2)c2ccc(NC(=O)[C@H](Cc3ccccc3)NC(=O)[C@H](CCCNC(=N)N)NC(=O)Nc3ccc(OC)cc3)cc12`, the IC50 (as a rule, the point on the concentration scale where inhibition reaches its midpoint) in test [1] is > 100 µM.
`CCCNCc1cn(Cc2ccc(F)cc2)c2ccc(NC(=O)[C@H](Cc3ccccc3)NC(=O)[C@H](CCCNC(=N)N)NC(=O)Nc3ccccc3)cc12`: the IC50 in test [1] is > 100 µM.
As for `CCCNCc1cn(Cc2ccc(F)cc2)c2ccc(NC(=O)[C@H](Cc3ccccc3)NC(=O)[C@H](CCCNC(=N)N)NC(=O)Nc3ccc(F)cc3)cc12`, in test [1], the IC50 is > 100 µM.
The same measure, in the same setting: in the case of `CC(=O)N[C@@H](CCCNC(=N)N)C(=O)N[C@@H](Cc1ccccc1)C(=O)Nc1ccc2c(CN)cn(Cc3ccc(F)cc3)c2c1` it was > 100 µM.
For the molecule `CC(=O)N[C@@H](CCCNC(=N)N)C(=O)N[C@@H](Cc1ccccc1)C(=O)Nc1ccc2c(CNC3CCCC3)cn(Cc3ccc(F)cc3)c2c1`, the figures for the IC50 (in the test on gel-filtered platelets [2]; in the test with gel-filtered platelets [3]; in test [1]) were 50.1 µM, 4 µM and 5.2 µM, respectively.
`CCCNCc1cn(Cc2ccc(F)cc2)c2ccc(NC(=O)[C@H](Cc3ccccc3)NC(=O)[C@H](CCCNC(=N)N)NC(=O)Nc3ccc(Cl)cc3)cc12`: the IC50 in test [1] was > 100 µM.
On the same count and under the same terms, the same measure for `CCCNCc1cn(Cc2ccc(F)cc2)c2ccc(NC(=O)[C@H](Cc3ccccc3)NC(=O)[C@H](CCCNC(=N)N)NC(=O)N3CCOCC3)cc12`: > 100 µM; for `CCCNCc1cn(Cc2ccc(F)cc2)c2ccc(NC(=O)[C@H](Cc3ccccc3)NC(=O)[C@H](CCCNC(=N)N)NC(=O)OCc3ccccc3)cc12`: 42 µM.
